# Antibody variant affinities, Ab-14 light chain, assay B

The measurements come from Li et al. 2023 (doi:10.1038/s41467-023-39022-2) through the FLAb antibody collection.

The target is the same throughout: PDVDLGDISGINAS, from the HR2 region of SARS-CoV-2 spike.

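Designed CDR sequences, proposed from the first random library and measured here. Group labels follow the data file (Ctrl: baseline library sampled from a position-specific scoring matrix, with some repeated check sequences; En: ensemble of fine-tuned language models; GP: Gaussian process model; HC: hill climbing; Gen: genetic algorithm; Gibbs: Gibbs sampling; a sequence that several methods proposed may carry one label only). AlphaSeq pools MATa yeast showing the antibodies with MATalpha yeast showing the peptide. Mating (16 h, 30 °C) was followed by selection of diploids and sequencing of their barcodes. Each replicate has its own calibration line, from reference interactions of the BCL2 family. The assay was run in six technical replicates.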

Each scFv is VH, a 15-residue (Gly4Ser)3 linker, VL, as in the parent Ab-14, and differs from it in the CDRs of the light chain only.
VH: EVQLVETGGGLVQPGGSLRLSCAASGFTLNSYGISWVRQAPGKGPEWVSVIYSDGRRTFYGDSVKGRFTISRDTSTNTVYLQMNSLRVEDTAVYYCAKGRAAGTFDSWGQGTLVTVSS
VL: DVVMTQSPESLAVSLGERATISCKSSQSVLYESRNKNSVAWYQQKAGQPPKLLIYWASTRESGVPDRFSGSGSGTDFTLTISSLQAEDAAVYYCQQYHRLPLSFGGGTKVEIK

The parent's light chain CDRs are KSSQSVLYESRNKNSVA, WASTRES, QQYHRLPLS; each variant's own CDRs replace them letter for letter. Affinities are written as log10 Kd with Kd in nM; a lower number is a better binder. The mean shown is taken over the replicates in which the pair was detected. A pair that was not seen in any replicate is written "no signal"; this usually means weak binding, but a binder can also be missed. Of ten entries with the parent sequence, four were seen in most replicates (averages 0.34 to 2.37), three in one and three in none, so single entries are noisy. In the paper, a design with two or fewer of six values counts as a poor binder. Three control strains display no target. For all light chain designs, 4% of the pairings with them gave a signal, with a median of 2.64 and one signal in twenty below 1.59, so weak values seen in few replicates may be background. A sequence measured in both rounds can read differently, since the two assays cover different ranges.

| CDR-L1 | CDR-L2 | CDR-L3 | group | mean, log10 nM | replicates with signal |
|---|---|---|---|---|---|
| TISQSTLMTGLNRNSVA | QASERIE | QQYHRLPLS | En_HC | 0.43 | 6 of 6 |
| KMETYSQDNRLTISAIA | EAQTIYQ | QQYGRLPLS | En_Gibbs | no signal | 0 of 6 |
| KITGTMRFEQKASNNIA | EVTQRSK | QQYYRLPLA | En_Gen | 0.69 | 6 of 6 |
| KSSFVYLYESRNKNSVA | SASTRES | QQYHRLPLS | GP_HC | 2.13 | 6 of 6 |
| KVSQSNLYESRNKNSVA | EASTRES | QQYHRLPLS | GP_Gen | no signal | 0 of 6 |
| HSSQSVLYESSNKNSVA | WASTRES | QQYHRLPLS | Ctrl | 0.71 | 6 of 6 |
| KFSQSVLYESRNKNSVA | WASTRES | QQYFRLPLS | Ctrl | 0.29 | 6 of 6 |
| TLQDWGIYGMENGNRIA | ERSKLEW | QQYGRLPLS | En_Gibbs | 0.64 | 6 of 6 |
| TVSQVHGMLTHNTNSVA | DMNTRGS | QQYDRLPLS | En_HC | 0.09 | 6 of 6 |
| KISTSALYESINKNSVA | ELTTRGS | QQYERLPLS | En_HC | 1.17 | 6 of 6 |
| HMSTLTLGGMRQRNSVA | QMTTREN | QQYDRLPLS | En_Gen | 0.49 | 6 of 6 |
| KVSEFMRGLMMRQDSIA | DNQTRNN | QQYDRLPLS | En_Gen | 0.91 | 6 of 6 |
| HMSMITLMGSKNRNSVA | QMTTREN | QQYDRLPLA | En_Gen | 2.24 | 4 of 6 |
| KVSMSDQYEARNKNSVA | EASTRED | QQYHRLPLS | GP_Gibbs | 0.46 | 6 of 6 |
| KLSQSVLYEERNKNSVA | NASTREQ | QQYHRLPLS | GP_Gen | 0.75 | 6 of 6 |
| MLSEVLHMLGVQKNSIA | DLVIRAN | QQYHRLPLF | En_Gen | no signal | 0 of 6 |
| KLSMSYRFESENKNSIA | ELVTRMS | QQYHRLPLS | En_HC | 1.02 | 5 of 6 |
| KVSQQVLYESRNKNSVA | DASTRES | QQYHRLPLS | GP_Gen | 0.75 | 6 of 6 |
| HMSMLTLQGMRHRNSVA | QMTTRVN | QQYDRLPLM | En_Gen | 1.48 | 6 of 6 |
| KLPQSQLYESRNKNSVA | NASYRES | QQYHRLPLS | GP_Gen | -0.14 | 6 of 6 |
| KSSWSVLFESRNKNSVA | DASTRSS | QQYHRLPLS | GP_HC | 0.31 | 6 of 6 |
| KSSQMYLYESRNKNSVA | GASTRES | QQYHRLPLS | GP_HC | 0.03 | 6 of 6 |
| KLQGFSNNMNDIWNSIA | DESMLHT | QHYDRLPLV | En_Gibbs | 1.57 | 6 of 6 |
| KLSQSELYESRNKNSVA | NASTRFS | QQYHRLPLS | GP_Gen | 0.37 | 6 of 6 |
| TIGAQLMYGTRNRSNVA | EVSQRLN | QQYDRLPLF | En_Gen | 1.38 | 6 of 6 |
| KISQSYLYESRNKNSVA | NASYRES | QQYHRLPLS | GP_Gen | 0.32 | 6 of 6 |
| KFSQSVNYESRTKNSVA | NASTRES | QQYHRLPLS | GP_HC | 0.20 | 6 of 6 |
| QFAGAMYHGGNDNQNIA | DAMTYIK | QQYSRLPLI | En_Gibbs | 1.63 | 6 of 6 |
| KHSQSVLYECSNKNSVA | WASTRES | QQYHRLPLS | Ctrl | 1.35 | 5 of 6 |
| AFTQNIFYGQRDDNSIA | HADELVK | QQYDRFPLA | En_Gibbs | 1.10 | 6 of 6 |
| KSSQSVLYESRNKNSVA | GGSTRES | QQYHRLPLW | Ctrl | 0.34 | 6 of 6 |
| IVSQLMLWGMHVKNSIA | EAQTRVN | QQYERLPLF | En_Gen | 2.29 | 3 of 6 |
| KLYVSTMLESHNKNSIA | DLSTRGN | QQYHRLPLS | En_HC | 0.07 | 6 of 6 |
| TLVDWIQGGMWAKKNVA | DESTRVN | QQYYRLPLS | En_Gibbs | 0.45 | 6 of 6 |
| KVRQSTLYESRNKNSVA | QASTRES | QQYHRLPLT | GP_HC | -0.05 | 6 of 6 |
| NLKEMEGTNQTKHGNIA | SVDQRMT | QQYFRLPFA | En_Gibbs | 0.87 | 6 of 6 |
| KSSQSVSYESRNKNSVA | WASYRES | QQYHRLPLS | Ctrl | 1.90 | 5 of 6 |
| TISQSVNMTSHGKNSVA | QAEMREA | QQYDRLPLS | En_HC | 1.25 | 6 of 6 |
| KLSQSVWYESRNKNSVA | EASTREQ | QQYHRLPLS | GP_Gen | -0.34 | 6 of 6 |
| KGSQSVLYESRNKNSVA | SASTRES | SQYHRLPLS | Ctrl | 1.32 | 6 of 6 |
| MVNQIMDHLSKNTNNVA | ETTTREE | QQYDRLPLS | En_Gen | 0.78 | 6 of 6 |
| KQSQSWLCESRNKNSVA | DASTRES | QQYHRLPLS | GP_HC | -0.26 | 6 of 6 |
| KITDDFLTEGNGRQNIA | HNNVACD | QQYQQLPLA | En_Gibbs | 0.42 | 6 of 6 |
| KSDQSVLYESGNKNSVA | WATTRES | QQYHRLPLS | Ctrl | 0.79 | 6 of 6 |
| TISQITSLFSQTINNVA | EVSTREE | QQYDRLPLA | En_Gen | 0.39 | 6 of 6 |
| KSSQSELYESRNKNSVA | YASTRES | QQYHRLPPS | Ctrl | 1.87 | 1 of 6 |
| MLSQMWALGMKVKNSVA | QASTRFN | QQYERLPLI | En_Gen | 1.18 | 6 of 6 |
| KLSNSVLYESRNKNSVA | EASTRES | QQYHRLPLS | GP_Gen | -0.22 | 6 of 6 |
| KCEQWQDYESRNKNSVA | QASTREQ | QQYHRLPLS | GP_Gibbs | 1.53 | 6 of 6 |
| KQQSSVMMGSRNKNSVA | SASKRES | QQYHRLPLS | GP_Gibbs | 0.82 | 6 of 6 |
| KSSQSVLYESRNKNSVA | QASMRES | QQYHRLPLS | Ctrl | 1.74 | 6 of 6 |
| KVSPEVEYESRLKNSVA | NASTRLE | QQYHRLPLS | GP_Gibbs | 1.59 | 6 of 6 |
| FLMQSWDYESRPKNSVA | NASTRMS | QQYHRLPLS | GP_Gibbs | 0.64 | 6 of 6 |
| KFQQSQLYESRNKNSVA | NASQRES | QQYHRLPLS | GP_Gen | 0.84 | 6 of 6 |
| KFSDSVLLESRNKNSVA | NASTRES | QQYHRLPLS | GP_HC | 0.01 | 6 of 6 |
| IVSQLMLWGYHAKNSIA | EAETRFN | QQYDRLPLF | En_Gen | no signal | 0 of 6 |
| KLSQSVEQEERNKNSVA | HASQREV | QQYHRLPLS | GP_Gibbs | -0.28 | 6 of 6 |
| KSSQSVLYEVRNKNSVA | AASTRES | QQYHRLPLF | Ctrl | 2.40 | 1 of 6 |
| KSSQSVLYESRNKNSVA | NASTRES | QGYHRLCLS | Ctrl | 1.47 | 6 of 6 |
| HISMMVGTKGCNKNSVA | NAETRED | QQYHRLPLS | En_HC | -0.03 | 6 of 6 |
| KITQIFSPKGNSWHSVA | NANTLAH | QQYYMLPLM | En_Gibbs | 0.89 | 6 of 6 |

Repeated from above, the 5 best binders with a signal in all replicates:

| CDR-L1 | CDR-L2 | CDR-L3 | group | mean, log10 nM | replicates with signal |
|---|---|---|---|---|---|
| KLSQSVWYESRNKNSVA | EASTREQ | QQYHRLPLS | GP_Gen | -0.34 | 6 of 6 |
| KLSQSVEQEERNKNSVA | HASQREV | QQYHRLPLS | GP_Gibbs | -0.28 | 6 of 6 |
| KQSQSWLCESRNKNSVA | DASTRES | QQYHRLPLS | GP_HC | -0.26 | 6 of 6 |
| KLSNSVLYESRNKNSVA | EASTRES | QQYHRLPLS | GP_Gen | -0.22 | 6 of 6 |
| KLPQSQLYESRNKNSVA | NASYRES | QQYHRLPLS | GP_Gen | -0.14 | 6 of 6 |